Inconclusive results and toxic doses are left out.

The test system of the assay is CD2F1 mice, L1210 leukemia sc, survival T/C. In words: NCI In Vivo Anticancer Drug Screen. Data for tumor model L1210 Leukemia (subcutaneous) in CD2F1 (CDF1) mice. The following applies: endpoint: median survival time, higher = longer survival. On the procedure: The antitumor activity of compounds was measured in mice bearing transplantable tumors. Survival or tumor size were measured and the results are expressed as the measurement made in the treated group (T) divided by the measurement made in the vehicle treated control group (C). The tumor model used in this assay is L1210 Leukemia (subcutaneous) in CD2F1 (CDF1) mice

On to `CN(Cc1cnc2nc(N)nc(N)c2n1)c1ccc(C(=O)N[C@@H](CCC(=O)O)C(=O)O)cc1`, for which the T/C is 106 % of control (dose: 0.25 mg/kg/injection, schedule: Q01DX009 (ip), vehicle: sodium bicarbonate); 216 % of control (dose: 0.5 mg/kg/injection, schedule: Q01DX Z (sc), vehicle: sodium bicarbonate); 211 % of control (dose: 0.84 mg/kg/injection, schedule: Q01DX Z (sc), vehicle: sodium bicarbonate); 172 % of control (dose: 1.08 mg/kg/injection, schedule: Q01DX009 (sc), vehicle: other); 172 % of control (dose: 1.08 mg/kg/injection, schedule: Q01DX009 (sc), vehicle: sodium bicarbonate); 211 % of control (dose: 1.8 mg/kg/injection, schedule: Q02DX Z (sc), vehicle: other). Further, the T/C was 162 % of control (dose: 1.95 mg/kg/injection, schedule: Q01DX Z (sc), vehicle: other); 216 % of control (dose: 2.16 mg/kg/injection, schedule: Q01DX Z (oral), vehicle: other); 211 % of control (dose: 3.0 mg/kg/injection, schedule: Q02DX Z (sc), vehicle: other); 211 % of control (dose: 3.6 mg/kg/injection, schedule: Q01DX Z (oral), vehicle: other); 172 % of control (dose: 3.61 mg/kg/injection, schedule: Q01DX Z (oral), vehicle: other); 172 % of control (dose: 5.83 mg/kg/injection, schedule: Q01DX Z (oral), vehicle: other). Besides, the T/C (dose: 6.0 mg/kg/injection, schedule: Q01DX Z (oral), vehicle: other) is 172 % of control and the T/C (dose: 300.0 mg/kg/injection, schedule: Q01DX009 (ip), vehicle: sodium bicarbonate) is 151 % of control.
